Reference: paper PMC11049645, “Mechanistic Study of Novel Dipeptidyl Peptidase IV Inhibitory Peptides from Goat’s Milk Based on Peptidomics and In Silico Analysis” (Foods, 2024)

By UniProt entry, the sequences of proteins in these tests, tags left out.
UniProt P27487, whole entry: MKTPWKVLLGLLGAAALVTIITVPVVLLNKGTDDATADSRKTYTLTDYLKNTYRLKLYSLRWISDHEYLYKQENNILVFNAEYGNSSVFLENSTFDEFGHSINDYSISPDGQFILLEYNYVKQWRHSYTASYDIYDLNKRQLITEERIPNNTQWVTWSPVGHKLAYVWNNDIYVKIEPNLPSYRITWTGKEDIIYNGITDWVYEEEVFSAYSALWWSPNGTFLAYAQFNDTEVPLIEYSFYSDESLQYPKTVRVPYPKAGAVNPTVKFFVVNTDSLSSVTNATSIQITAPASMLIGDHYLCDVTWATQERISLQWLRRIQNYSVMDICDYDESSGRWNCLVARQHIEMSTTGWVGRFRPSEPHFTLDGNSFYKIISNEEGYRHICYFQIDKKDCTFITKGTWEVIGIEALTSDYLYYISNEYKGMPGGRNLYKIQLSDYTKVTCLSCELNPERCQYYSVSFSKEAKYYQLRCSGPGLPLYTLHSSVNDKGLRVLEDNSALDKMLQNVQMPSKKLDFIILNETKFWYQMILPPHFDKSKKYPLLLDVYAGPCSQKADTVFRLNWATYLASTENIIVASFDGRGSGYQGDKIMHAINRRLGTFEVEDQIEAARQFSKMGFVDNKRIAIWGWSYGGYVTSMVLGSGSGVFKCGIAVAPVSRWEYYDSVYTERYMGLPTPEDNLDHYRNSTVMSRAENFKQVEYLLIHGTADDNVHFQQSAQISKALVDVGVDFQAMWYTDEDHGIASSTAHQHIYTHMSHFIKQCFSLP

Columns and labels:
[1] = target: T1, DPP-IV activity of Caco-2 cells (Homo sapiens, UniProt P27487); test: In situ cell-based DPP-IV inhibition (Gly-Pro-AMC); conditions: 1 h at 37 °C, Gly-Pro-AMC 50 µM, mean ± SD (n = 3), read-out: In situ DPP-IV inhibitory activity IC50
T1 construct: endogenous in cells; host or cells: Caco-2
Method: The Caco-2 cells (Cell Bank of Shanghai Academy of Biological Science, Shanghai, China) were incubated at 37 °C in a 5% CO2 environment in DMEM supplemented with 10% FBS and 1% penicillin–streptomycin liquid. Unless otherwise stated below, the cells were cultivated at a density of 5 × 10^4 cells/mL in the culture dishes (Corning Inc., Corning, NY, USA). The cell culture medium was changed every two days, and the cells from passage numbers of 15–25 were used in this study.
Briefly, 2 × 10^4 Caco-2 cells/well cells were seeded in 96-well microplates and cultivated for 24 h. […] Subsequently, 100 µL of the fluorescent substrate Gly-Pro-AMC (50 µM) was added to each well and incubated for 5 min. IPI was used as a positive control. Then, the florescence was monitored with excitation and emission wavelengths of 380 nm and 500 nm (Molecular Devices SpectraMax M5, San Jose, CA, USA).

DPP-IV = target: T2, DPP-IV (Homo sapiens, UniProt P27487); test: DPP-IV inhibitory assay (in vitro chemical system, Gly-Pro-pNA); type: biochemical
T2 construct: purchased Sigma-Aldrich
Method: The DPP-IV inhibitory activity of peptides was performed as previously reported with slight modifications. Briefly, peptides were diluted using 100 mM Tris-HCL buffer (pH = 8). Then, 25 μL diluted peptides were mixed with 25 μL of 1.6 mM Gly-Pro-pNA in a 96-well microplate and incubated at 37 °C for 10 min. […] The DPP-IV-inhibition (DI) was calculated with the following equation: DI%=1−AS−ASC/ANR−ANC×100% where AS (sample) is the optical density in the presence of peptide, DPP-IV, and Gly-Pro-pNA; ASC (sample control) is the optical density when DPP-IV is replaced with Tris-HCl buffer (100 mM, pH 8.0); ANR (negative reaction) is the optical density in the presence of only DPP-IV solution and Gly-Pro-pNA; and ANC (negative control) is the optical density in the absence of DPP-IV and peptide.

**Q.** With `N[C@@H](Cc1ccc(O)cc1)C(=O)N1CCC[C@H]1C(=O)N[C@@H](Cc1ccccc1)C(=O)O` [Peptide P4, YPF] as the compound, how does the IC50 [1] read?
**A.** 159 ± 17.4 µM

**Q.** What about the IC50 (DPP-IV) of the same compound?
**A.** 369 ± 13 µM
